# Binding of CDR-mutated scFvs to a peptide of the spike HR2 region

From the AlphaSeq antibody data of Li et al. 2023 (doi:10.1038/s41467-023-39022-2), copy in the FLAb collection.

Antigen: PDVDLGDISGINAS, a 14-residue peptide of the SARS-CoV-2 spike HR2 region.

The variants keep the heavy chain, the linker and the frameworks of Ab-14 (scFv order VH, a 15-residue (Gly4Ser)3 linker, VL).
VH: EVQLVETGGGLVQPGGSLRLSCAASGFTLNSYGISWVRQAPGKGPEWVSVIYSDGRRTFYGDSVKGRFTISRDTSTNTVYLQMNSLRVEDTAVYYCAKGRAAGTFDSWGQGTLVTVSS
VL: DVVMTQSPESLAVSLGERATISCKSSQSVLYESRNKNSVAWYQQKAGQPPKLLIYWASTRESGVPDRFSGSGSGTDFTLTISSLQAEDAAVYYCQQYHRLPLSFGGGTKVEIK

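The parent was found by panning a naive human phage display library on the peptide. This is the validation round: designs drawn from the data on random variants, tested in the same kind of assay. Group labels follow the data file (Rand: our label for a block that the file lists under HC and that is probably the random mutants of the ten best first-round binders; En: ensemble of fine-tuned language models; GP: Gaussian process model; HC: hill climbing; Gen: genetic algorithm; Gibbs: Gibbs sampling; a sequence that several methods proposed may carry one label only). The scFvs were displayed on barcoded MATa yeast, the peptide on MATalpha yeast. The frequency of each diploid, read from paired DNA barcodes, reflects how well the two displayed proteins bind. The ratio of observed to expected reads was calibrated, replicate by replicate, on BCL2-family standards whose Kd was known from biolayer interferometry. There are six technical replicates.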

The parent's light chain CDRs are KSSQSVLYESRNKNSVA, WASTRES, QQYHRLPLS; each variant's own CDRs replace them letter for letter. This list holds designs with more than six substitutions. Scale: log10 of Kd in nM, estimated from mating counts; low values are strong binders. Replicates are averaged; those with no signal do not enter the mean. An entry "nd" has no value in the source: the pair was not observed among the diploids in any replicate. This suggests poor binding but is not conclusive.

Variant TISQMTSLFSQSINNVA / EVSTREK / QQYDRLPLV [En_Gen] showed 1.02 (6 of 6 replicates).
Variant HMSDSIEKMASIERNIA / DETTTAM / QQYYRLPLS [En_Gibbs] showed 1.50 (6 of 6 replicates).
Variant KITGTMRFEQKASNNIA / EVTQRSK / QQYYRLPLA [En_Gen] showed 0.69 (6 of 6 replicates).
Variant KLVGDMQEDKNPSENIA / EESSVSQ / QQYSRLPLE [En_Gibbs] showed nd (0 of 6 replicates).
Variant MITAGLRGVGRNKNSVA / NAQTREQ / QHYHRLPLS [En_HC] showed 2.06 (6 of 6 replicates).
Variant KLRAVTGTEKVIGNNVA / EMETRER / QQYNRLPLS [En_Gen] showed 0.31 (6 of 6 replicates).
Variant KSSQEQDYQSRNINSVA / DASLRES / QQYHRLPLS [GP_Gibbs] showed 0.62 (6 of 6 replicates).
Variant KITGTMRFEQKAKNNIA / EVTTRSK / QQYYRLPLS [En_Gen] showed 1.11 (6 of 6 replicates).
Variant HFAYQLQSLYLSKQNVA / NASTVMT / QHYNRLPLS [En_Gibbs] showed 2.00 (6 of 6 replicates).
Variant KVSQMQDYESRNKNNVA / NASTRMS / QQYHRLPLS [GP_Gibbs] showed 0.00 (6 of 6 replicates).
Variant NLQNLGMENSVWKNAIA / DVNIKEI / QQYWRLPLL [En_Gibbs] showed 1.04 (6 of 6 replicates).
Variant KIAMSMNLTSHHINSVA / QSTTREE / QQYNHLPLS [En_HC] showed 0.97 (6 of 6 replicates).
Variant KIGSGTNGEKFQSNSVA / QTSTREE / QQYHRLPLS [En_HC] showed 0.39 (6 of 6 replicates).
Variant LLSGMVEEQETRQKNIA / EVEFRCM / QQYSRLPLS [En_Gibbs] showed 2.16 (2 of 6 replicates).
Variant KVSIFMLTMDNAWSSIA / NEAATRT / QQYQRLPLS [En_Gibbs] showed nd (0 of 6 replicates).
Variant KVSISWLMESRNKNQVA / HASTRMS / QQYHRLPLS [GP_Gibbs] showed 1.71 (6 of 6 replicates).
Variant QIYQAMHTLMQQKNNVA / DVTNRNN / QQYFRLPLS [En_Gen] showed 0.42 (6 of 6 replicates).
Variant KLSQSTSYESLNKNSVA / ELTTRGG / QQYNRLPLS [En_HC] showed 1.88 (3 of 6 replicates).
Variant HITYGMMVAGRHSSSIA / QAETRAK / QQYDRLPLM [En_Gen] showed 0.62 (6 of 6 replicates).
Variant KLDQSHLYESRNWNSVA / NANTREE / QQYHRLPLS [GP_Gibbs] showed 0.24 (6 of 6 replicates).
Variant KVVQSVNGLQRAKNSVA / QASTRES / QQYHRLPLS [GP_Gibbs] showed 0.55 (6 of 6 replicates).
Variant HSLPSVLFESRNKNSVA / NASTRES / LQYHRLVLC [Rand] showed 1.96 (4 of 6 replicates).
Variant MMSQVWGMGQRHRNNVA / QTSTREP / QQYDRLPLI [En_Gen] showed 0.74 (6 of 6 replicates).
Variant KLSMSMLMESRHKNNVA / ENSTREE / QHYHRLPLS [En_HC] showed 2.72 (1 of 6 replicates).
Variant QLSSITGHMQIEKNNVA / EMETREN / QQYDRLPLS [En_Gen] showed 0.42 (6 of 6 replicates).
Variant NFSQMVLTGYTLKNSVA / HASTREE / QQYHRLPLI [En_HC] showed 1.24 (6 of 6 replicates).
Variant NLQNLGMENSVWKNAIA / DVNIKES / QQYWRLPLL [En_Gibbs] showed 0.42 (6 of 6 replicates).
Variant KLSMITGHMSVSKNNVA / EMATREN / QQYNRLPLS [En_Gen] showed 0.38 (6 of 6 replicates).
Variant KLVNFMNRGTHHTSNIA / DAQDRID / QQYARLPLA [En_Gen] showed 0.52 (6 of 6 replicates).
Variant MLSQMWALGMKAKNSVA / QASMRFN / QQYDRLPLI [En_Gen] showed nd (0 of 6 replicates).
Variant MISMEEAPAIQQESSIA / HGGTRAE / QQYNRLPLC [En_Gibbs] showed 0.31 (6 of 6 replicates).
Variant TITQMFLGESRNRNSVA / QASTRES / QSYDRLPLS [En_HC] showed 3.34 (2 of 6 replicates).
Variant NIYQAMHTLMQAKNNVA / DVTNRQK / QQYNRLPLS [En_Gen] showed -0.12 (6 of 6 replicates).
Variant NVRMSLGYVQNVGSAVA / EASQVEM / QQYYTLPLT [En_Gibbs] showed 1.54 (6 of 6 replicates).
Variant SFDLTKSGMENERYSIA / ERNVLMT / QDYHRLPLA [En_Gibbs] showed 2.68 (2 of 6 replicates).
Variant KISMMINMTFEQSNNVA / EMATREK / QQYNRLPLS [En_Gen] showed 1.50 (6 of 6 replicates).
Variant IISETYGNMVTKKNSIA / DNTTRED / QQYDRLPLS [En_Gen] showed 2.25 (2 of 6 replicates).
Variant KLSEMYQHTSRNKNNIA / ERSTRES / QQYHHLPLS [En_HC] showed -0.03 (6 of 6 replicates).
Variant TLTQVQGMESHAKNSVA / DLSTRGS / QQYHRLPLS [En_HC] showed 0.14 (6 of 6 replicates).

For reference, 6 entries of the list once more:

CDR-L1,CDR-L2,CDR-L3,group,"mean, log10 nM",seen in
SFDLTKSGMENERYSIA,ERNVLMT,QDYHRLPLA,En_Gibbs,2.68,2 of 6
HITYGMMVAGRHSSSIA,QAETRAK,QQYDRLPLM,En_Gen,0.62,6 of 6
NLQNLGMENSVWKNAIA,DVNIKEI,QQYWRLPLL,En_Gibbs,1.04,6 of 6
TITQMFLGESRNRNSVA,QASTRES,QSYDRLPLS,En_HC,3.34,2 of 6
NFSQMVLTGYTLKNSVA,HASTREE,QQYHRLPLI,En_HC,1.24,6 of 6
KISMMINMTFEQSNNVA,EMATREK,QQYNRLPLS,En_Gen,1.50,6 of 6

Of ten entries with the parent sequence, four were seen in most replicates (averages 0.34 to 2.37), three in one and three in none, so single entries are noisy. In the paper, a design with two or fewer of six values counts as a poor binder. Three control strains display no target. For all light chain designs, 4% of the pairings with them gave a signal, with a median of 2.64 and one signal in twenty below 1.59, so weak values seen in few replicates may be background. Values of this round are not directly comparable with the first-round values of the same sequences.